The text below walks through data of patent US10774092B2 (SALK INSTITUTE FOR BIOLOGICAL STUDIES, priority 2014, dated 2020).

Protein sequences, listed by entry. Tags and fused reporters are not part of them. Lines headed by an entry give the natural chain unless they say otherwise; changes in a name come on top.
UniProt O75385: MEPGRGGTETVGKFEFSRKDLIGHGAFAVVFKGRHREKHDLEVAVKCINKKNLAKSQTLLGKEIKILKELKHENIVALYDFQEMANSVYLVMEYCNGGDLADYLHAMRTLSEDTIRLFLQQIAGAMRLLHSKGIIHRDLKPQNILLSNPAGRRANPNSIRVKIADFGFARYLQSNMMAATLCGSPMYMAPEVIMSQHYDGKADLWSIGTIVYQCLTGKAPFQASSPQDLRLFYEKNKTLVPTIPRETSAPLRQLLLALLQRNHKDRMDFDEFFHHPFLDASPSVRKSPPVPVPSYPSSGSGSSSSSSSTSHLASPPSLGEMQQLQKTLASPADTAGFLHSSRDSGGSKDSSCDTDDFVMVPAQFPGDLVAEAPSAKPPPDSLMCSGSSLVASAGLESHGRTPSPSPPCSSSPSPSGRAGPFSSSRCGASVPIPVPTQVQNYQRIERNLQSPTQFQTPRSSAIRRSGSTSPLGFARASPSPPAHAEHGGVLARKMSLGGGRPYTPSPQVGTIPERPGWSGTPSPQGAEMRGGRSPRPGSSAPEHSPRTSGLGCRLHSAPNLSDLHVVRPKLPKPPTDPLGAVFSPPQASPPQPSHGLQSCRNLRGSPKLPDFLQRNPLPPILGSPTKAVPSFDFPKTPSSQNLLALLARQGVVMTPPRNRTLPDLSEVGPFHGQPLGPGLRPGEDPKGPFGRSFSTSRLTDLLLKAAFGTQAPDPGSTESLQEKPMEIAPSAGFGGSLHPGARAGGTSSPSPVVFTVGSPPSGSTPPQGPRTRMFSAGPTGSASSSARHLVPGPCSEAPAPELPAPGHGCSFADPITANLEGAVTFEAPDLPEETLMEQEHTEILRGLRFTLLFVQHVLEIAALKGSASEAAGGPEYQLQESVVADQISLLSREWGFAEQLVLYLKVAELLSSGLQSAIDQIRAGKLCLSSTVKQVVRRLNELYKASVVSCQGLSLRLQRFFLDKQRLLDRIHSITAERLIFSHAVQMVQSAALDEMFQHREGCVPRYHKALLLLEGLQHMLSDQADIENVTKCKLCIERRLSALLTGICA

Structures are written as SMILES. Bounds are passed on as bounds.

The first experiment deals with ULK1 (Homo sapiens, UniProt O75385). In words: ULK1 inhibition assay (Table 1). It is filed as biochemical.
Conditions: not given
With `Nc1n[nH]c(Nc2nc(Nc3ccc4c(c3)CCC(=O)N4)ncc2C(F)(F)F)n1` [Example 243, 6-((4-((3-amino-1H-1,2,4-triazol-5-yl)amino)-5-(trifluoromethyl)pyrimidin-2-yl)amino)-3,4-dihydroquinolin-2(1H)-one], the IC50 (in general, the concentration at which inhibition is half-maximal) lay within 200 to 2000 nM.

The same experiment, now with this note: ULK1 inhibition assay; * = tested as a mixture of regioisomers.
On to `O=C1CCc2cc(Nc3ncc(C(F)(F)F)c(NCC(F)(F)F)n3)ccc2N1` [Example 222, 6-((4-((2,2,2-trifluoroethyl)amino)-5-(trifluoromethyl)pyrimidin-2-yl)amino)-3,4-dihydroquinolin-2(1H)-one], for which the IC50 is less than 200 nM.
The same measure, in the same setting: with `FC(F)(F)c1cnc(Nc2ccc3[nH]ncc3c2)nc1NC1CC1` [Example 195, N4-cyclopropyl-N2-(1H-indazol-5-yl)-5-(trifluoromethyl) pyrimidine-2,4-diamine] the figure was less than 200 nM; with `FC(F)(F)c1cnc(Nc2ccc3nccnc3c2)nc1NC1CC1` [Example 305, N4-cyclopropyl-N2-(quinoxalin-6-yl)-5-(trifluoromethyl) pyrimidine-2,4-diamine], less than 200 nM; with `Oc1ccccc1Nc1ncc(C(F)(F)F)c(NC2CC2)n1` [Example 255, 2-((4-(cyclopropylamino)-5-(trifluoromethyl)pyrimidin-2-yl)amino)phenol], less than 200 nM.
As to `CS(=O)(=O)Nc1nc(Nc2ccc3c(c2)CCC(=O)N3)ncc1C(F)(F)F` [Example 226, N-(2-((2-oxo-1,2,3,4-tetrahydroquinolin-6-yl)amino)-5-(trifluoromethyl)pyrimidin-4-yl)methanesulfonamide], the IC50 was greater than 2000 nM.
The same measure, in the same setting: with `FC(F)(F)c1cnc(Nc2ccc3nc[nH]c3c2)nc1NC1CC1` [Example 211, N2-(1H-benzo[d]imidazol-6-yl)-N4-cyclopropyl-5-(trifluoromethyl)pyrimidine-2,4-diamine] the figure was less than 200 nM.
